Data published in PMC10215740, “Concentrations of Co-Administered Meropenem and Vancomycin in Spinal Tissues Relevant for the Treatment of Pyogenic Spondylodiscitis—An Experimental Microdialysis Study” (Antibiotics, 2023).
Marks after values point to notes of the source that are not given here.

Test: Plasma and spinal tissue pharmacokinetics by microdialysis after single-dose co-administered i.v. meropenem and vancomycin
Conditions: pigs n = 8, mean (95%CI)
Source text: Eight female pigs (Danish Landrace breed, weight 78–82 kg) were included. In general anaesthesia, microdialysis catheters were placed in the third cervical (C3) vertebral cancellous bone, the C3-C4 intervertebral disc, paravertebral muscle, and adjacent subcutaneous tissue. Plasma samples were obtained as a reference. Abiding by the recommendations of replacement, reduction, and refinement (the 3 Rs) when conducting animal studies, the data sampled in extrathecal spinal tissues in the present study are derived from animals where lower extremity data were reported previously. […] The dose and mode of administration used were in accordance with the clinical practice at our institution. Sampling was conducted for 8 h.
(Figure 3). The microdialysis catheters used were CMA 70 (membrane length 10 and 20 mm, molecular mass cut of 20 kDa; M Dialysis AB, Stockholm, Sweden). Through an anterolateral approach, the C2, C3, and C4 vertebrae were exposed. Using a 2 mm drill, a 25 mm drill hole was made into the C3 vertebra in which a 20 mm microdialysis catheter was placed. Afterward, with aid from a splitable microdialysis introducer (M Dialysis AB, Stockholm, Sweden), a 10 mm microdialysis catheter was positioned in the C3-C4 intervertebral disc, and a 20 mm microdialysis catheter was positioned in both the exposed paravertebral muscle and adjacent subcutaneous tissue. Correct positioning of the microdialysis catheters in the vertebra and the intervertebral disc was verified by fluoroscopy. The catheters were connected to precision pumps (CMA 107; M Dialysis AB, Stockholm, Sweden) and perfused with 0.9% NaCl solution at a flow rate of 1 μL/min.
After catheter placement, microdialysis sampling was initiated with a tissue-equilibration period of 20 min prior to the antibiotic intravenous administration. […] Microdialysates were collected at 30 min intervals for the first 4 h, and at 60 min intervals for the last 4 h, resulting in a total of 12 samples during an 8-h dosing interval. At the midpoint of each sampling interval, blood samples were collected from a central venous catheter for reference. The blood samples were stored at 5 °C for a maximum of 6 h before being centrifuged (room temperature, 3000 g, 10 min), and plasma aliquots were made. […] The recovery sample was later used for individual catheter calibration and calculation of absolute tissue concentrations. […]
The free drug concentration of meropenem in plasma was quantified using ultra-high performance liquid chromatography (UHPLC).

SMILES: CN[C@H](CC(C)C)C(=O)N[C@H]1C(=O)N[C@@H](CC(N)=O)C(=O)N[C@H]2C(=O)N[C@H]3C(=O)N[C@H](C(=O)N[C@H](C(=O)O)c4cc(O)cc(O)c4-c4cc3ccc4O)[C@H](O)c3ccc(c(Cl)c3)Oc3cc2cc(c3O[C@@H]2O[C@H](CO)[C@@H](O)[C@H](O)[C@H]2O[C@H]2C[C@](C)(N)[C@H](O)[C@H](C)O2)Oc2ccc(cc2Cl)[C@H]1O [Vancomycin, vancomycin]
- Tmax (paravertebral muscle, microdialysis, single i.v. 1000 mg meropenem + 1000 mg vancomycin co-administered): 126 (79; 172) min
- Tmax (plasma, single i.v. 1000 mg meropenem (10 min) + 1000 mg vancomycin (100 min) co-administered): 92 (45; 138) ^e min
- Tmax (subcutaneous tissue, microdialysis, single i.v. 1000 mg meropenem + 1000 mg vancomycin co-administered): 135 (88; 181) min
- Tmax (vertebral cancellous bone, microdialysis, single i.v. 1000 mg meropenem + 1000 mg vancomycin co-administered): 174 (128; 221) min
